Data from ChEMBL document CHEMBL1154346 (Bioorg Med Chem Lett, 2009).

The chains behind the UniProt entries cited, without tags or fusion partners. Where a name states a change or a piece, a line headed by the entry shows the natural chain unless it says otherwise.
UniProt P41146: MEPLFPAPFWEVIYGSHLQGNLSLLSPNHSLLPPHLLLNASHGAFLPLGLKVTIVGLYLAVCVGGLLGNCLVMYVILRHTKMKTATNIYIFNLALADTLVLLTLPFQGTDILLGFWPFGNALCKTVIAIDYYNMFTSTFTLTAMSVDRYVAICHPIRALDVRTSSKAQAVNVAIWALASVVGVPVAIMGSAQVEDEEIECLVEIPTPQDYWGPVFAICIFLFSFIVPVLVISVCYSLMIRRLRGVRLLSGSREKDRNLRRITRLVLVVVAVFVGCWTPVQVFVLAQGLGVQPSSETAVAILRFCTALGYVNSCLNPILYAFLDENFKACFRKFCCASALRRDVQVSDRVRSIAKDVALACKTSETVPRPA

Columns and labels:
Homo sapiens = organism: Homo sapiens; test: Selectivity for human NOP receptor to human MOP receptor
[1] = biological target: Nociceptin receptor (Homo sapiens) (UniProt P41146); test: Agonist activity at human NOP receptor expressed in CHO cells assessed as inhibition of forskolin-stimulated cAMP production after 2 hrs relative to nociceptin; set-up: scale not given: the % may be the effect or the level left

SMILES	Ratio Ki (Homo sapiens)	Activity [1]
CNC(=O)Cn1c(=O)n(C2CCN(C3CCCCCC3)CC2)c2ccccc21	51	
CNC(=O)Cn1c(=O)n(C2CCN(C3CCC(C)(C)CC3)CC2)c2ccccc21	54	
CNC(=O)CN1Cc2ccccc2N(C2CCN(Cc3ccc(C)c4ccccc34)CC2)C1=O	0.9	
CNC(=O)CN1Cc2ccccc2N(C2CCN(C3CCCCCCCCC3)CC2)S1(=O)=O	3.7	
CNC(=O)CN1N=C(c2ccccc2)C2(CCN(C3CCC(C(C)(C)C)CC3)CC2)C1=O (configuration not stated)	0.2	109%
CNC(=O)Cn1c(=O)n(C2CCN(C3CCC(C(C)(C)C)CC3)CC2)c2ccccc21 (configuration not stated)	14	
CNC(=O)CN1c2ccccc2N(C2CCN(C3CCCCCCCCC3)CC2)S1(=O)=O	43	104%
CNC(=O)CN1C(=O)OC2(CCN(C3CCC(C(C)C)CC3)CC2)c2ccccc21 (configuration not stated)	1	78%
CNC(=O)Cn1c(=O)n(C2CCN(C3CCCCCCC3)CC2)c2ccccc21	41	
CNC(=O)Cn1c(=O)n(C2CCN(Cc3ccccc3-c3ccccc3)CC2)c2ccccc21	0.2	
CNC(=O)Cn1c(=O)n(C2CCN(C3CCCC3(C)C)CC2)c2ccccc21 (configuration not stated)	5.6	
CNC(=O)Cn1c(=O)n(C2CCN(CC3CCCCC3)CC2)c2ccccc21	7.3	
CNC(=O)Cn1c(=O)n(C2CCN([C@H]3CC[C@@H](C(C)C)CC3)CC2)c2ccccc21	99	
CNC(=O)CN1Cc2ccccc2N(C2CCN(C3CCC(C(C)C)CC3)CC2)C1=O (configuration not stated)	1	
CNC(=O)Cn1c(=O)n(C2CCN(C3CCC(C)(C)CC3(C)C)CC2)c2ccccc21 (configuration not stated)	10	
CNC(=O)Cn1c(=O)n(C2CCN([C@H]3CC[C@H](C(C)C)CC3)CC2)c2ccccc21	1	
CNC(=O)Cn1c(=O)n(C2CCN(Cc3ccc(C)c4ccccc34)CC2)c2ccccc21	51	
CNC(=O)Cn1c(=O)n(C2CCN(Cc3ccc(OC)c4ccccc34)CC2)c2ccccc21	6.7	

SMILES	Ratio Ki (Homo sapiens)	Activity [1]
CNC(=O)CN1C(=O)OC2(CCN(C3CCC(C(C)(C)C)CC3)CC2)c2ccccc21 (configuration not stated)	0.4	
CNC(=O)CN1C(=O)OC2(CCN(C3CCCCCC3)CC2)c2ccccc21	0.2	
CNC(=O)Cn1c(=O)n(C2CCN(CCC(C)(C)C)CC2)c2ccccc21	15	
CNC(=O)CN1c2ccccc2N(C2CCN(C3CCC(C(C)C)CC3)CC2)S1(=O)=O (configuration not stated)	54	110%
CNC(=O)Cn1c(=O)n(C2CCN(C3CCCC4(CCCCC4)C3)CC2)c2ccccc21 (configuration not stated)	26	
CNC(=O)CN1N=C(c2ccccc2)C2(CCN(C3CCC4CCCCC4C3)CC2)C1=O (configuration not stated)	0.8	74%
CNC(=O)Cn1c(=O)n(C2CCN(C3CCCCCCCCC3)CC2)c2ccccc21	55	
CNC(=O)CN1c2ccccc2N(C2CCN(C3CCC4CCCCC4C3)CC2)S1(=O)=O (configuration not stated)	38	104%
CNC(=O)CN1c2ccccc2N(C2CCN(C3CCCCCC3)CC2)S1(=O)=O	29	81%
CNC(=O)Cn1c(=O)n(C2CCN(Cc3cccc4ccccc34)CC2)c2ccccc21	2.3	
CNC(=O)CN1Cc2ccccc2N(C2CCN(C3CCC4CCCCC4C3)CC2)S1(=O)=O (configuration not stated)	2.8	84%
CNC(=O)CN1Cc2ccccc2N(C2CCN(C3CCC(C(C)C)CC3)CC2)S1(=O)=O (configuration not stated)	4.1	95%
CNC(=O)Cn1c(=O)n(C2CCN(C3CCC4CCCCC4C3)CC2)c2ccccc21 (configuration not stated)	36	
CNC(=O)Cn1c(=O)n(C2CCN(C3CCC(C(C)C)CC3)CC2)c2ccccc21 (configuration not stated)	118	
CNC(=O)CN1N=C(c2ccccc2)C2(CCN(C3CCC(C(C)C)CC3)CC2)C1=O (configuration not stated)	0.5	75%
CNC(=O)CN1C(=O)OC2(CCN(C3CCCCCCCCC3)CC2)c2ccccc21	1	82%
CNC(=O)CN1N=C(c2ccccc2)C2(CCN(C3CCCCCCCCC3)CC2)C1=O	0.5	81%
